Measurements published in ChEMBL document CHEMBL1135413, “Arylamidrazones as novel corticotropin releasing factor receptor antagonists” (J Med Chem, 2002).

Molecular target: T1, Corticotropin-releasing factor receptor 1 (Homo sapiens, UniProt P34998)
T1 sequence (P34998 whole entry): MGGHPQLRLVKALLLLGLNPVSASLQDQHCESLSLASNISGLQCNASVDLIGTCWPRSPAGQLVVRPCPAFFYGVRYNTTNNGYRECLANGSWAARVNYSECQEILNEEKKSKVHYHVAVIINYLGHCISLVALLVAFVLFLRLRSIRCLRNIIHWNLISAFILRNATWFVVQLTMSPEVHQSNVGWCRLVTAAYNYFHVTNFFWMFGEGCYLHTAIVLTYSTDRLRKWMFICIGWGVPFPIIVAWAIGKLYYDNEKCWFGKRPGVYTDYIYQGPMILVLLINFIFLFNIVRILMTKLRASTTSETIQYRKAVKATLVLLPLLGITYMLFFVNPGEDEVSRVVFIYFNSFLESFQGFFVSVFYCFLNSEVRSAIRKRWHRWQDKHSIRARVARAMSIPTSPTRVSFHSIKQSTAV
Assay: Binding affinity against human Corticotropin releasing factor receptor 1

Question: How did the Ki turn out when CC(=O)C(=NNc1ccccc1C)Nc1cccc(Cl)c1 was run?
Answer: 216 nM
